Values quoted from earlier work, collected in patent publication US8183046B2, “Temperature resistant pH buffers for use at low temperatures” (The Board of Trustees of the University of Illinois, priority 2007, dated 2012).

Conditions: Table 5, in parentheses; single value; cited from earlier work

Q: Which “pKa values for the single buffers” value does the source give for `NC(CO)(CO)CO` [Trizma, 2-Amino-2-(hydroxymethyl)-1,3-propanediol] here?
A: (8.06)
